According to US20170280728A1, “ANTIMICROBIAL COMPOSITIONS AND METHODS OF THEIR USE” (CMS TECHNOLOGY, INC.., priority 2014, published 2017):

System: General Bacteria (bacterial bird rinse)
Assay: General Bacteria Assay (Vivione RAPID-B Total Plate Count)
Assay type: cell-based

Q: For OCl, which “Average Live” value (5 ppm chlorine, pH at inoculation 6.57, Baseline 1562) is on record?
A: 1452

Q: What about the “Average Live” value (5 ppm chlorine, pH at inoculation 7.13, Baseline 408) of the same compound?
A: 405

Q: What about the “Average Live” value (10 ppm chlorine, pH at inoculation 6.65, Baseline 1562) of the same compound?
A: 859

Q: And the “Average Live” value (10 ppm chlorine, pH at inoculation 7.11, Baseline 408)?
A: 387

Q: What about the “Average Live” value (20 ppm chlorine, pH at inoculation 7.02, Baseline 408) of the same compound?
A: 90
